Source: patent US4925943A, “2-(2-aminobenzyl or 2-nitrobenzyl)-1,2,3,4-tetrahydroisoquinoline derivatives” (priority 1986, dated 1990)

Biological target: T1, α1 adrenergic receptors of isolated rat deferent canal (Rattus norvegicus, UniProt P43140)
T1 construct: The deferent canals of 12-week old male Wistar rats are removed; from tissue; host or cells: isolated vas deferens (deferent canal) of male Wistar rats
T1 sequence (P43140 1-466): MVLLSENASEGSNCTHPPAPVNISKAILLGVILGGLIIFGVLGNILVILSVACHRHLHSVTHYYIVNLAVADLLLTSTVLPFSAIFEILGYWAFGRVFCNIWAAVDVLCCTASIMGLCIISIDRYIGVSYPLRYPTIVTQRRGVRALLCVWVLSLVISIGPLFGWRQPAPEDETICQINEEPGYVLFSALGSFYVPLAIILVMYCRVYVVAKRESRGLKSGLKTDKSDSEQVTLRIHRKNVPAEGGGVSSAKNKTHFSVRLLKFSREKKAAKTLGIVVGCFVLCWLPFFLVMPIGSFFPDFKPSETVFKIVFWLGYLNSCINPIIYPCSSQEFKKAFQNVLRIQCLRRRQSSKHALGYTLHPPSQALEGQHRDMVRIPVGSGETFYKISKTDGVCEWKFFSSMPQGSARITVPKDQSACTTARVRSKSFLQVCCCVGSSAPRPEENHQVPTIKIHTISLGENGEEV
Experiment: antagonism with phenylephrine induced contraction of rat deferent canal
Set-up: species or system rat (male Wistar)

Q: `COC(=O)[C@@H]1[C@H]2C[C@H]3c4[nH]c5ccccc5c4CCN3C[C@@H]2CC[C@@H]1O` [Yohimbine] was tested. Which Kb did it give?
A: 832 nM
